Assay results from paper PMC8298264, “Function of cofactor Akirin2 in the regulation of gene expression in model human neutrophil-like HL60 cells” (Bioscience Reports, 2021).

Tested on: human HL60 cells
Experiment: SWATH-MS proteomics, differential protein representation, akirin2 KO vs WT HL60 cells
Type: cell-based
Details: akirin2 KO vs WT HL60 cells
Experimental: Total proteins were extracted from WT and akirin2 KO HL60 cells using the AllPrep DNA/RNA/Protein Mini Kit (Qiagen) and protein concentration was determined using the BCA Protein Assay with BSA (Sigma–Aldrich) as standard. Protein extracts (150 µg per sample, n=3 biological replicates) from each WT and KO cells were trypsin digested using the FASP Protein Digestion Kit (Expedeon Ltd., Abcam, Cambridge, U.K.) and sequencing grade trypsin (Promega, Madison, WI, U.S.A.) following manufacturer’s recommendations. The resulting peptides were finally desalted on to OMIX Pipette tips C18 (Agilent Technologies, Santa Clara, CA, U.S.A.), dried down and stored at −20 °C until mass spectrometry analysis. […] Three micrograms of each protein digest from the three biological replicates of WT and akirin2 KO HL60 cells were used for the generation of the reference spectral ion library as part of the SWATH-MS analysis.
Peptides were eluted in a 120-min gradient from 5 to 30% solvent B in solvent A followed by 15-min gradient from 30 to 60% solvent B in solvent A (solvent A: 0.1% formic acid in water, solvent B: 0.1% formic acid in acetonitrile) and directly injected into the mass spectrometer for analysis. For IDA experiments, the mass spectrometer was set to scanning full spectra (350–1400 m/z) using 250 ms accumulation time per spectrum, followed by up to 50 MS/MS scans (100–1500 m/z). Candidate ions with a charge state between +2 and +5 counts per second above a minimum threshold of 100 were isolated for fragmentation. One MS/MS spectrum was collected for 100 ms, before adding those precursor ions to the exclusion list for 15 s (mass spectrometer operated by Analyst TF 1.6, AB Sciex). Dynamic background subtraction was turned off. MS/MS analyses were recorded in high-sensitivity mode with rolling collision energy on and a collision energy spread of 5. For SWATH quantitative analysis, six independent samples (three replicates from WT and akirin2 KO HL60 cells, 5 µg each) were subjected to the cyclic DIA of mass spectra using the SWATH variable windows calculator (V 1.0, AB Sciex) and the SWATH acquisition method editor (AB Sciex), similar to established methods. […] For these experiments, a 50-ms survey scan (350–1400 m/z) was acquired at the beginning of each cycle, and SWATH–MS/MS spectra were collected from 100–1500 m/z for 70 ms at high-sensitivity mode, resulting in a cycle time of 3.6 s. Collision energy for each window was determined according to the calculation for a charge +2 ion-centered upon the window with a collision energy spread of 15. […] The detected protein threshold was set at 0.05. […] Global normalization was performed according to the Total Area Sums (TAS) of all detected proteins in the samples. […]

[1] = SWATH-MS, over-represented in KO
[2] = KO vs WT, sheet "Under-represented in KO"

| Substance | Fold Change [1] | Log (Fold Change) [1] | Fold Change [2] | Log (Fold Change) [2] |
| --- | --- | --- | --- | --- |
| Albumin | 7.56 | 0.8785 | – | – |
| sp¦Q9NZI8¦IF2B1_HUMAN | – | – | 0.6208 | -0.2071 |
